One assay has as its target Nociceptin receptor (Homo sapiens, UniProt P41146). The assay is described as follows: ChEBML_144661.
The target in the next assay is Mu-type opioid receptor (Homo sapiens, UniProt P35372). Briefly: ChEBML_148227.

Protein sequences, listed by entry. Tags and fused reporters are not part of them. Lines headed by an entry give the natural chain unless they say otherwise; changes in a name come on top.
UniProt P41146: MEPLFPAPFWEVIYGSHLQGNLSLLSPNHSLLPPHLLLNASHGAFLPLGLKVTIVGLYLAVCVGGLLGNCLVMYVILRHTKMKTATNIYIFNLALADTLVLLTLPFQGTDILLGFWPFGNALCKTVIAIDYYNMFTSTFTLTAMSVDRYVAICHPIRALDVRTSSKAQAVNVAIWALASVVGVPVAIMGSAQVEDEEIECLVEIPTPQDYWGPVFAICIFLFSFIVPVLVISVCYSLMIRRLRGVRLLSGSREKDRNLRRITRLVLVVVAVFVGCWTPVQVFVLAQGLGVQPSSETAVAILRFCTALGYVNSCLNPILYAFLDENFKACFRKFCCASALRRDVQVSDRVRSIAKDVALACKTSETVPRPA
UniProt P35372, whole entry, looked up: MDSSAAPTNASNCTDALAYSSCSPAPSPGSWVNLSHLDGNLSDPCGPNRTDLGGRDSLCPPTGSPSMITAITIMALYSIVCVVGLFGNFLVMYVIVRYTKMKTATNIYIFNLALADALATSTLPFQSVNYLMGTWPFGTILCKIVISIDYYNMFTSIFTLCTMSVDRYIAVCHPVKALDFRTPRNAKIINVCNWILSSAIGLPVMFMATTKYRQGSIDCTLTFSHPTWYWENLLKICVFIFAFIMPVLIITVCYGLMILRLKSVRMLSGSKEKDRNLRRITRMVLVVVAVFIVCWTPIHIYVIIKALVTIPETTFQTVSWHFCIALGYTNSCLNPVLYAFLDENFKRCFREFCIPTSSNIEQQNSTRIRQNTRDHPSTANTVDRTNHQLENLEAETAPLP

SMILES strings stand for the structures. pKi: −log10 of the molar value.

In the case of `O=C1N[C@@H]2CCCC[C@H]2N1C1CCN(Cc2ccc3ccccc3c2)CC1`, the pKi was 5.90 at Nociceptin receptor and 5.91 at Mu-type opioid receptor.

`CCN1C(=O)N(C2CCN(C3CCC4CCCCC4C3)CC2)[C@@H]2CCCC[C@H]21` (stereo partly specified): the pKi is 6.74 on Nociceptin receptor and 6.55 at Mu-type opioid receptor.

For the compound `CCN1C(=O)N(C2CCN(C3CCCCCCC3)CC2)[C@@H]2CCCC[C@H]21`, the pKi was 6.95 at Nociceptin receptor and 6.04 on Mu-type opioid receptor.

By pKi is commonly meant the Ki on a negative log10 scale, so that one unit is a factor of ten. A lower pKi goes with a large Ki.

These data come from BindingDB's records for 14980696.
